The text below walks through data of patent publication US12507703B2, “Methods, devices and compositions for preserving human milk” (The Trustees of Princeton University, priority 2023, dated 2025).

Where a name gives a salt, the structure may show the parent alone.

This assay concerns lipase. Nature of the assay: Lipase/lipolysis assay (EnzChek Lipase Substrate, quenched BODIPY-fatty acid conjugate) on stored human milk. On Lipase (RFU): test concentration or dose not given here. As to conditions: for Lipase (RFU): stored 1 week at −20° C.
Setting [1] is: compound added to fresh human milk, thawed at room temperature, RFU <400 considered a hit.
The mark [2] stands for this setting: Biolog PM4 compound added to fresh human milk, RFU <400 = hit.
[3] abbreviates: Food Additive Library compound added to fresh human milk, thawed at room temperature, RFU of <400 considered a hit.
[4] abbreviates: Food-Sourced Compound Library compound added to fresh human milk, thawed at room temperature, RFU <400 considered a hit.
Setting [5] is: Biolog PM2a compound added to fresh human milk, RFU <400 = hit.
Where [6] appears, read: Biolog PM1 compound added to fresh human milk, RFU <400 = hit.
Where [7] appears, read: Biolog PM5 compound added to fresh human milk, RFU <400 = hit.

Consider `CC/C(=C(/CC)c1ccc(O)cc1)c1ccc(O)cc1` [Diethylstilbestrol], for which the “Lipase (RFU)” value under setting [1] was 701.5237 RFU.

With `O=C(O)[C@H](O)[C@@H](O)[C@H](O)[C@H](O)COP(=O)(O)O` [6-Phospho-Gluconic Acid], the “Lipase (RFU)” value under setting [2] came out at 914.9964 RFU. Consider `CC1=CC(=O)CC1` [3-Methyl-2-cyclopenten-1-one], for which the “Lipase (RFU)” value by setting is: under setting [3], 888.5186 RFU; under setting [4], 916.3953 RFU.

On to `CC(=O)N[C@H]1C(O)O[C@H](CO)[C@H](O)[C@@H]1O` (stereo partly drawn) [N-Acetyl-D-Galactosamine], for which the “Lipase (RFU)” value under setting [5] stood at 615.1658 RFU. On to `COc1ccc(C=O)c(O)c1` [2-Hydroxy-4-methoxybenzaldehyde], for which the “Lipase (RFU)” value turned out to be 932.9902 RFU under setting [3] and 1139.589 RFU under setting [1]. On to `O=c1cc(-c2ccc(O)cc2)oc2cc(O)cc(O)c12` [Apigenin], for which the “Lipase (RFU)” value under setting [1] amounted to 930.6963 RFU. `O=C(O)CC(O)CC(=O)O` [3-Hydroxyglutaric acid]: the “Lipase (RFU)” value under setting [4] was 1249.582 RFU. Regarding `N[C@H](CC(=O)O)C(=O)O` [D-Aspartic Acid], the “Lipase (RFU)” value under setting [6] was 878.5051 RFU and the “Lipase (RFU)” value under setting [7] is given as 1152.002 RFU. For the molecule `O=C[C@H](O)[C@@H](O)[C@H](O)[C@H](O)COP(=O)(O)O` [D-Glucose-6-Phosphate], the “Lipase (RFU)” value was 1034.77 RFU under setting [6] and 847.6712 RFU under setting [2]. As for `COc1ccccc1C=CC=O` [Compound 2-Methoxycinnamaldehyde, 2-Methoxycinnamaldehyde], the “Lipase (RFU)” value came out at 806.8366 RFU under setting [3] and 1103.02 RFU under setting [1].

Turning to `NC(=O)NC1NC(=O)NC1=O` (stereo not drawn) [Allantoin], under setting [1], the “Lipase (RFU)” value is reported as 1073.817 RFU. As to `COc1ccc(-c2cc(=O)c3c(O)c(OC)c(OC)cc3o2)cc1O` [Eupatorin], the “Lipase (RFU)” value under setting [4] is listed as 858.1529 RFU. With `Cc1cn([C@H]2C[C@H](O)[C@@H](CO)O2)c(=O)[nH]c1=O` [Thymidine], the “Lipase (RFU)” value reads like this: under setting [6], 823.4011 RFU; under setting [7], 991.7514 RFU.

Take `COC(=O)CCc1ccccc1` [Methyl 3-phenylpropanoate]: the “Lipase (RFU)” value under setting [3] is 889.7516 RFU. `O=c1c(-c2ccc(O)cc2)coc2cc(O[C@@H]3O[C@H](CO)[C@@H](O)[C@H](O)[C@H]3O)cc(O)c12` [Genistin]: under setting [1], the “Lipase (RFU)” value amounted to 1023.483 RFU. For the molecule `C=C(CC(=O)O)C(=O)O` [Itaconic Acid], the “Lipase (RFU)” value under setting [5] was 177.3666 RFU. Also, the “Hit in lipase inhibition screen (in words)” value (approximately 2700 compound screen, human milk stored 1 week at −20° C., hit = RFU <400) is listed as “significantly inhibited lipase activity”. In the case of `CCOC(=O)CCC(=O)OCC` [Diethyl succinate], under setting [3], the “Lipase (RFU)” value amounted to 730.8022 RFU. For `Cn1cnc2c(ncn2[C@@H]2O[C@H](CO)[C@@H](O)[C@H]2O)c1=N` [Compound 1-Methyladenosine, 1-Methyladenosine], the “Lipase (RFU)” value under setting [4] worked out at 849.3773 RFU. With `O=C(O)c1cccnc1C(=O)O` [Quinolinic Acid], under setting [7], the “Lipase (RFU)” value is on record as 1209.412 RFU. Consider `CC(=O)NCC(=O)O` [N-Acetylglycine], for which the “Lipase (RFU)” value under setting [4] is given as 915.7026 RFU.

Regarding `OCCc1ccc(O)cc1` [Tyrosol], the “Lipase (RFU)” value under setting [4] worked out at 831.18 RFU. Consider `O=C(O)c1ccc(O)cc1O` [2,4-Dihydroxybenzoic acid], for which the “Lipase (RFU)” value under setting [3] turned out to be 1064.046 RFU. For `N[C@H](COP(=O)(O)O)C(=O)O` [O-Phospho-D-Serine], under setting [2], the “Lipase (RFU)” value was 913.5487 RFU. Turning to `COc1cc(O)c2c(=O)c(O)c(-c3ccc(O)c(O)c3)oc2c1` [Rhamnetin], the “Lipase (RFU)” value under setting [4] is given as 1025.752 RFU. In the case of `OC[C@H]1O[C@@H](n2cnc3c(O)ncnc32)[C@H](O)[C@@H]1O` [Inosine], the “Lipase (RFU)” value is 739.9959 RFU under setting [6] and 959.6179 RFU under setting [7]. For `CN(CC(=O)O)C(=N)N` [Creatine], under setting [1], the “Lipase (RFU)” value was determined as 1063.581 RFU. Take `CC(=O)Oc1ccccc1` [Phenyl acetate]: the “Lipase (RFU)” value under setting [3] is on record as 681.5677 RFU. Take `CC(CCC(=O)NCC(=O)O)C1CCC2C3C(O)CC4CC(O)CCC4(C)C3CCC12C` (stereo not drawn) [Glycochenodeoxycholic acid (sodium salt)]: the “Lipase (RFU)” value under setting [1] came to 1042.644 RFU.
